# T1: human big-endothelin-1 (big-ET-1) (human)
# T1 peptide: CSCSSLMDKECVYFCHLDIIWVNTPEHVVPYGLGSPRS
# T2: mouse big-ET-1 (mouse)
# T2 peptide: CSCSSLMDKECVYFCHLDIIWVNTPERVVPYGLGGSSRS
# B1: H4H6335P (antibody, V domains shown)
# VH: EVQLVESGGGLVKPGGSLRLSCAASGFTFSNDWMSWVRQAPGKGLEWVGRIKRKTDGGTTDYAAPVKGRFTISRDDSKNTLYLQMNSLKTEDTAVYYCTTGGYERGGQGTLVTVSS
# VL: [omitted - about 100 residues]LTFGGGTKVEIK
# notes: Human IgG4 Fc (prefix H4H)
# How the values were obtained:
# [1] = molecular target: T1, human big-endothelin-1 (big-ET-1); assay: cell-based or functional assay
# [2] = molecular target: T2, mouse big-ET-1; assay: cell-based or functional assay
# [3] = molecular target: T1, human big-endothelin-1 (big-ET-1); assay: SPR (Biacore T200), 37 C, mAb capture, peptide analyte
# Experimental: Measurements were conducted on a T200 Biacore instrument (Biacore Life Sciences division of GE Healthcare, Piscataway, N.J.). […] Peptide binding was monitored for 3 min while dissociation of mAb-bound peptide was monitored for 4 min in HBST running buffer (0.01 M HEPES pH 7.4, 0.15 M NaCl, 3 mM EDTA, 0.005% v/v Surfactant P20). Kinetic association (kₐ) and dissociation (kd) rate constants were determined by processing and fitting the data to a 1:1 binding model using Scrubber 2.0 curve fitting software.
binder,measurement,setting,value
B1,"Blocking IC50(M), 10 nM hBig-ET-1 + 3 nM hECE1; 293/ETaR/NFAT-Luc luciferase",[1],6.6e-09 M
same,"Blocking IC50(M), 20 nM mBig-ET-1 + 5 nM mECE1; 293/ETaR/NFAT-Luc luciferase",[2],> 1e-07 M
same,Kd,[3],5.34 nM
same,T½,[3],3 min
same,koff,[3],0.00437 s⁻¹
same,kon,[3],818000 M⁻¹ s⁻¹

# From US20130216547A1 (Regeneron, published 2013)
